Reference: ChEMBL document CHEMBL1130598, “Pyrroles and other heterocycles as inhibitors of p38 kinase” (Bioorg Med Chem Lett, 1998)

Organism: Rattus norvegicus
Assay: animal or person
Details: intraduodenal, read-out: Inhibition

`COc1ccc2c(c1)c(CC(=O)O)c(C)n2C(=O)c1ccc(Cl)cc1` [INDOMETHACIN] gave an inhibition in vivo at 1 mg/kg of 79%.
